Target: Mcl-1 (Homo sapiens, UniProt Q07820)
Test: Ki determination for Mcl-1 (BCL-2 family binding spectrum)
Settings: TABLE 8
From the text: To assess the binding and affinity of compounds that antagonize the interaction between a peptide and an acceptor protein, a fluorescence polarization assay (FPA) utilizing a fluoresceinated peptidomimetic macrocycle derived from a peptidomimetic precursor sequence is used, for example. The FPA technique measures the molecular orientation and mobility using polarized light and fluorescent tracer. […] A compound that antagonizes the interaction between the fluoresceinated peptidomimetic macrocycle and an acceptor protein will be detected in a competitive binding FPA experiment.
Antagonist binding activity is measured, for example, by fluorescence polarization on a luminescence spectrophotometer (e.g. Perkin-Elmer LS50B). Kd values may be determined by nonlinear regression analysis using, for example, Graphpad Prism software (GraphPad Software, Inc., San Diego, Calif.).

Sequences of proteins named here, by UniProt entry; tags and fusion partners are left off.
UniProt Q07820, whole entry, species assumed: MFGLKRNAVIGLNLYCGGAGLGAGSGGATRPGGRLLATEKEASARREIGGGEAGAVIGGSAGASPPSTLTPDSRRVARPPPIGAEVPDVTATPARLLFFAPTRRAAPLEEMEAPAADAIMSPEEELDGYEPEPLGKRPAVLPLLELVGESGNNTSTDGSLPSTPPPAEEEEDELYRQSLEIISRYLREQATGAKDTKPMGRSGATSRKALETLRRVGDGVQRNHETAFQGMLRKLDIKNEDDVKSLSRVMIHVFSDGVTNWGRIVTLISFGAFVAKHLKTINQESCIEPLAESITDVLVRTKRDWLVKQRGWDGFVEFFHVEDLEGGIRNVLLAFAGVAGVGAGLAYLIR

- Ki: > 1000 nM
SMILES: CN(C)CC[C@H](CSc1ccccc1)Nc1ccc(S(=O)(=O)NC(=O)c2ccc(N3CCN(Cc4ccccc4-c4ccc(Cl)cc4)CC3)cc2)cc1[N+](=O)[O-] [ABT-737, reference compound]

Reference: patent publication US20190185518A9, “WARHEAD-CONTAINING PEPTIDOMIMETIC MACROCYCLES AS MODULATORS OF BFL-1” (AILERON Therapeutics, Inc., priority 2017, published 2019)
